Target: recombinant human ALX receptor (HEK293-hALXR-Gα16 cells) (Homo sapiens (Human), UniProt P25090)
Assay: Intracellular calcium measurements (FLIPR), ALX receptor agonistic activity
Settings: read-out: EC50 (agonistic activity with respect to the ALX receptor), normalized to 10 nM WKYMVm
Procedure: The ALX receptor agonistic activity of the compounds of formula (I) is determined in accordance with the following experimental method.
Intracellular Calcium Measurements:
Cells expressing recombinant human ALX receptor and the G-protein Gα16 (HEK293-hALXR-Gα16) were grown to 80% confluency in Growing Medium (GM). Cells were detached from culture dishes with a cell dissociation buffer (Invitrogen, 13151-014), and collected by centrifugation at 1,000 rpm at rt for 5 min in Assay Buffer (AB) (equal parts of Hank's BSS (Gibco, 14065-049) and DMEM without Phenol Red (Gibco, 11880-028)). After 60 min incubation at 37° C. under 5% CO2 in AB supplemented with 1 μM Fluo-4 (AM) (Invitrogen, F14202) and 20 mM HEPES (Gibco, 15630-056), the cells were washed and resuspended in AB. They were then seeded onto 384-well FLIPR assay plates (Greiner, 781091) at 50,000 cells in 70 μl per well and sedimented by centrifugation at 1,000 rpm for 1 min. Stock solutions of test compounds were made up at a concentration of 10 mM in DMSO, and serially diluted in AB to concentrations required for activation dose response curves. WKYMVm (Phoenix Peptides) was used as a reference agonist. […] Changes in fluorescence were monitored before and after the addition of test compounds at lex=488 nm and lem=540 nm. […]

By UniProt entry, the sequences of proteins in these tests, tags left out.
UniProt P25090, whole entry: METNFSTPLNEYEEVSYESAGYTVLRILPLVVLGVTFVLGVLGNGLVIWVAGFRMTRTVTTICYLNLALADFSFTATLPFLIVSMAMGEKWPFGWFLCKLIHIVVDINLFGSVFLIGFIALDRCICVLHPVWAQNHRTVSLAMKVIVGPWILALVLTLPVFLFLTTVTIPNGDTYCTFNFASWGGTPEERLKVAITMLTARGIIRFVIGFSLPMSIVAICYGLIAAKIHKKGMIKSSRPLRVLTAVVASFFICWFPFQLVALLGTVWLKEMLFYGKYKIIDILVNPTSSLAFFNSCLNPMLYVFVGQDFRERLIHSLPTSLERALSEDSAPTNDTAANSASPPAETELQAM

Row | EC50 | SMILES
1 | 2.2 nM | CC(=O)c1csc(Cn2ncc(NC(=O)c3nc(C)oc3-c3cccc(C)c3)n2)n1
2 | 0.7 nM | CC(=O)c1coc(Cn2ncc(NC(=O)c3ncoc3-c3ccccc3)n2)n1
